Assay results taken from US20240325303A1, “KETOROLAC LIQUID COMPOSITION, PREPARATION METHOD THEREFOR, AND APPLICATION THEREOF” (SHANGHAI AURORA BIOTECHNOLOGY CO., LTD., priority 2021, published 2024).

Tested on: guinea pigs
Experiment: Active systemic anaphylaxis assay in guinea pigs
Conditions: 40 mg/kg i.m. / 80 mg/kg i.v., 9 animals

## Positive control: Positive control group (human serum albumin) of the anaphylaxis assay
  animals died after challenge: 5
